Literature values, collected in patent US20250250647A1, “STABLE CELL CLONES HARBORING REPLICATING SARS-COV-2 RNA” (priority 2021, published 2025).

Amino acid sequences for entries named in this document (tags omitted). Residues count along the entry.
UniProt P36888, 27-993 limits assumed: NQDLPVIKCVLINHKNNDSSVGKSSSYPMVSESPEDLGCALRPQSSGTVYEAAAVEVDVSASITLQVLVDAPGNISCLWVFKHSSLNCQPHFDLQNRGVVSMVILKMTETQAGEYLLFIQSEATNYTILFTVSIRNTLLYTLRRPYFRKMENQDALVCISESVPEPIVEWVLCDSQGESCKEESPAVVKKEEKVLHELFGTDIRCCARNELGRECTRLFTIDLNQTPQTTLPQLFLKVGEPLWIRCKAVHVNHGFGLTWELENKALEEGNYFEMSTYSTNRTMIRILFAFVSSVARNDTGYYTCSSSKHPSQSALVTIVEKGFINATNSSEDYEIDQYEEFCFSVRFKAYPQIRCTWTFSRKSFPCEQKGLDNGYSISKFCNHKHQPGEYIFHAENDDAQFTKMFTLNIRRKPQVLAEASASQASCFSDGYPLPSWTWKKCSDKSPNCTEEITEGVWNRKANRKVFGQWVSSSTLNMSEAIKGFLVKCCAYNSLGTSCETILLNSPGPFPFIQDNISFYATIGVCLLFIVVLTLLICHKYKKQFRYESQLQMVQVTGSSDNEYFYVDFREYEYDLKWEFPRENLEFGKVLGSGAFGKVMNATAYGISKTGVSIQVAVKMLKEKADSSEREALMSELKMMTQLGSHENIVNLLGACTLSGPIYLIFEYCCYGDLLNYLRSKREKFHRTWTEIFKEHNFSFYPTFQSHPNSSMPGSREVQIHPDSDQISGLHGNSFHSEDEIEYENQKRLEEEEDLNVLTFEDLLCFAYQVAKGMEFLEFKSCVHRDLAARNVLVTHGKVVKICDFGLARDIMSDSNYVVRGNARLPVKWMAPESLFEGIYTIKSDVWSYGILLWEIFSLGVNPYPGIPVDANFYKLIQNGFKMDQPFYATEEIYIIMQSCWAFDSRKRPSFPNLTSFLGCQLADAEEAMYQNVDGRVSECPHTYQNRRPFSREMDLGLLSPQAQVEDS
UniProt Q92793, 1085-1192 limits assumed: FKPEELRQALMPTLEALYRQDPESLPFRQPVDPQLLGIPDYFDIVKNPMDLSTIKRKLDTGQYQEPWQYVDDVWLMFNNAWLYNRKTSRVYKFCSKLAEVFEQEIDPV

How the values were obtained:
[1] = target: FLT3 (Homo sapiens, UniProt P36888); settings: read-out: IC50 FLT3; cited from earlier work
[2] = target: CREBBP bromodomain (Homo sapiens, UniProt Q92793); settings: read-out: IC50 CREBBP bromodomain; tested form: HCl; cited from earlier work

Row | SMILES | IC50 [1] [nM] | IC50 [2] [nM]
1 | FC(F)(F)c1ccc(CNc2ccc(Cc3c[nH]c4ncc(Cl)cc34)cn2)cc1 | < 1000 | 
2 | CCCOc1ccc(CCc2nc3cc(-c4c(C)noc4C)ccc3n2CCN2CCOCC2)cc1 |  | 125
